Laboratory results as given in US10596259B2, “Tumor radiosensitization with monomethyl auristatin E (MMAE) and derivatives thereof” (The Regents of the University of California, priority 2015, dated 2020).

Tests used:
Cal-27 GFP flank tumors = assay: Frozen block face imaging of Cy5 localization; format: in vivo, mice; settings: cetuximab-Cy5 5 nanomoles 24 hr; RACPP 10 nanomoles 2 hr
Source text: Both sets of tumors were flash frozen in liquid N2 and imaged using the frozen block face technique. Green is GFP expressed in the tumor cells, magenta is Cy5 fluorescence. Magenta is used for the benefit of colorblind referees: see Wong (2011) Nature Methods 8: 441. A) and C) are lower magnification images that show labeling of the tumor cells (T) in the context of stroma (S) and surrounding normal muscle (M).
Frozen block face imaging will give fluorescence maps of where the Cy5-labeled mAb or ACPP is ending up in a tumor and its surrounding tissue with minimal perturbation or manipulation to signal. The tissue is fresh-frozen, fast enough to minimize cellular damage, so there is no perfusion or fixation artifact, allowing the signal in the blood and vessels to be preserved. A block face is cut, up to a centimeter across, and imaged on a Nikon confocal microscope while still frozen, while keeping the objective thermal insulation. We already have multiple tumor models with GFP and intend to label others with a red FP, allowing for easy visualization on both a macro and a micro scale. […] See, FIG. 46A-D for an exemplary comparison of Cy5 fluorescence showing different localizations of a mAb, cetuximab, vs. our standard ACPP ((SEQ ID NO:4) PLGC(Me)AG Cy5/Cy7-labeled RACPP). […]

SCC-35 cells = assay: Alamar Blue cell viability assay; format: cell-based, Human; settings: 72 hours
Procedure: (§1) Alamar Blue (resazurin) was added to the cells and allowed to incubate for 2 hrs at 37° C. Plates were analyzed using a plate reader with fluorescence measured at 560 nm.

SCC-61 cells = assay: Alamar Blue cell viability assay; format: cell-based, Human; settings: 72 hours
Procedure: as §1

CAL-27 cells [1] = assay: Alamar Blue cell viability assay; format: cell-based, Human; settings: 72 hours
Procedure: as §1

SQ-9G cells [2] = assay: Alamar Blue cell viability assay; format: cell-based, Human; settings: 72 hours
Procedure: as §1

CAL-27 cells [3] = assay: Clonogenic assay with IR; format: cell-based, Human; settings: for surviving fraction at 2 Gy: cetuximab-MMAE-Cy5 0.5 nM or 2 nM, cetuximab-Cy5 2 nM, overnight
Source text: Following IR, cells were counted, re-plated at varying cell numbers in drug free media. 10-14 after initial seeding formed colonies were methanol fixed, stained with crystal violet and counted.

CAL-27 tumor xenografts [4] = assay: In vivo tumor xenograft growth with or without IR; design: species or system mice; settings: for tumor growth, non-irradiated tumors: day 0 iv: 0.5 nmoles antibody or 2 nmoles free MMAE, no IR
Procedure: CAL-27 tumor xenografts were established and tumor growth was measured with digital calipers. Tumor volume was calculated using the formula as ½*Length*Width^2. Mice were randomized into groups once the average tumor volume reached >150 mm^3. Mice were assigned to indicated groups in the Results. […] Free MMAE was injected on an equimolar basis to ACPP-cRGD-MMAE in final volume of 3% DMSO. MMAE doses and IR fractionation are as indicated in the Results.

LN-229 cells [5] = assay: Neutral comet assay; format: cell-based; settings: pre-treatment, then 6 Gy; low EGFR expressing
Procedure: (§2) Cells were harvested 15 minutes post IR, suspended in agarose gel and lysed per assay directions (Trevigen). Samples underwent electrophoresis under neutral conditions and were then stained with Sybr Green. Comet tails were counted in multiple fields (>60 cells per sample) and analyzed using CometScore (TriTek Corp).

CAL-27 cells [6] = assay: Cy5 fluorescence imaging and flow cytometry cell binding; format: cell-based, Human; settings: for cell surface binding (Cy5, flow cytometry): 0-5 nM on ice 15 minutes
Procedure: (§3) Cells were then washed with PBS and incubated in media with 10% serum. At indicated times, cells were fixed in 4% paraformaldehyde and then stained with DAPI. Cells were imaged using a Nikon AIR confocal microscope.
(§4) Cells were collected and resuspended in cold PBS with 5% BSA. […] Cells were washed, resuspended in PBS with 5% BSA and 0.5 ug/ml propidium iodide, and analyzed by flow cytometry.

CAL-27 cells [7] = assay: Neutral comet assay; format: cell-based, Human; settings: for comet tail length vs vehicle: non-irradiated cells, overnight treatment; for comet tail length in irradiated cells vs vehicle irradiated: overnight treatment (cetuximab-Cy5 5 nM), then 6 Gy
Procedure: as §2

LN-229 cells [8] = assay: Alamar Blue cell viability assay; format: cell-based; settings: concentrations of up to 100 nM, 72 hours
Procedure: (§5) Cells were plated in 96 well plates and exposed to a range of concentrations of MMAE or paclitaxel for 72 hrs. Alamar Blue (resazurin) was added to the cells and allowed to incubate for 2 hrs at 37° C. Plates were analyzed using a plate reader with fluorescence measured at 560 nm.

A549 cells [9] = assay: Flow cytometry cell surface binding; format: cell-based, Human; settings: live cells, on ice
Procedure: as §4

HCT-116 cells [10] = assay: Flow cytometry cell surface binding; format: cell-based, Human; settings: live cells, on ice
Procedure: as §4

HCT-116 cells [11] = assay: Alamar Blue cell viability assay; format: cell-based, Human; settings: 72 hours
Procedure: as §5, with “plates at varying cell densities” for “plates”, “to” for “to a”, “(also known as resazurin)” for “(resazurin)”, “nm. For irradiated cells, cells were treated with MMAE overnight followed by 6 Gy.” for “nm.”
as §5
Cells were plated in 96-well plates and exposed to MMAE or paclitaxel for 72 hours and analyzed at 560 nm. For irradiated cells, cells were treated with MMAE overnight followed by 6 Gy.

[12] = tested on: SQ-9G, SCC-35 and SCC-61 cells; assay: Confocal microscopy binding and internalization; format: cell-based, Human; settings: 4 hrs following exposure
Procedure: as §3

LN-229 cells [13] = assay: Cy5 fluorescence cell binding; format: cell-based; settings: low EGFR-1 expression
Procedure: as §3, §4

LN-229 tumor xenografts = assay: In vivo tumor xenograft optical imaging (Cy5); design: species or system mice; settings: 0.5 nmoles iv; low EGFR expressing
Procedure: (§6) All animal work was done in compliance with the UCSD Institutional Animal Use and Care Committee. 6-8 week old female athymic nu/nu mice purchased from the UCSD Animal Care Program breeding colony were injected subcutaneously into the bilateral upper thighs with 5×10^6 CAL-27, SQ9-G, SCC-35, SCC-61, A549, HCT-116 or LN-229 tumor cells in a 1:1 Matrigel (BD) and PBS solution. […] For imaging, mice were anesthetized (1:1 mixture of 100 mg/ml of ketamine and 5 mg/ml of midazolam). Animals were imaged using a Maestro Small Animal Imager (CRI) with excitation filter of 620/22 nm and 645 nm long pass emission filter with dichroic filter tuned to 670 nm. Imaging was done both with skin on and after skin removal to decrease autofluorescence and scattering.

[14] = tested on: CAL-27, SCC-61, SCC-35, SQ-9G, A549 and HCT-116 tumor xenografts; assay: In vivo tumor xenograft optical imaging (Cy5); design: species or system mice; settings: 0.5 nmoles iv; for persistence / retention in tumor xenografts: Cy5 fluorescence
Procedure: as §6

SCC-25 cells = assay: Neutral comet assay; format: cell-based, Human; settings: overnight treatment, then 6 Gy
Procedure: as §2

SQ-9G cells [15] = assay: Neutral comet assay; format: cell-based, Human; settings: overnight treatment, then 6 Gy
Procedure: as §2

CAL-27 tumor xenografts [16] = assay: Immunohistochemistry for pS10 histone H3; format: in vivo, mice; settings: harvested 1 day after injection
Source text: Xenograft tumor tissue was fixed in formalin, processed, and embedded in paraffin wax. Four micron thick tissue sections were cut and mounted on positively-charged glass slides. The tissue was then stained with H&E and an antibody to pS10 histone H3 using a Ventana Discovery Ultra (Ventana Medical Systems). The primary antibody was used at a 1:250 dilution and was visualized using DAB as a chromagen with the UltraMap system (Ventana Medical Systems).

A549 cells [17] = assay: Alamar Blue cell viability assay; format: cell-based, Human; settings: 72 hours
Procedure: as §5

CAL-27 cells [18] = assay: Cell cycle analysis by flow cytometry (PI); format: cell-based, Human; settings: 5 nM, 24 hrs
Procedure: Cells were treated with RNAse, stained with propidium iodide (PI) and analyzed by FACS using FloJo software.

cetuximab-Cy5
localization within tumor (Cy5) (Cal-27 GFP flank tumors): homing to EGFR expressing tumor cells
sensitivity of cells (SCC-35 cells; dose above 10 nM): modest sensitivity
sensitivity of cells (SCC-61 cells; doses up to 100 nM): relatively resistant
effect on cell survival (CAL-27 cells [1]; dose of 10 nM): minimal effect on cell survival
sensitivity of cells (CAL-27 cells [1]; doses up to 100 nM): relatively resistant
sensitivity of cells (SQ-9G cells [2]; dose above 10 nM): modest sensitivity
surviving fraction at 2 Gy (CAL-27 cells [3]): did not affect survival of irradiated cells
tumor growth, non-irradiated tumors (CAL-27 tumor xenografts [4]): delayed tumor growth
comet tail length in irradiated cells vs vehicle irradiated (LN-229 cells [5]): no further increased comet tail length
intracellular persistence of Cy5 fluorescence (CAL-27 cells [6]; 2 nM at 37°): ≥ 48 h
Cy5 fluorescence localization (CAL-27 cells [6]; 2 nM at 37°, by 2 hrs): localized to the cell surface and was internalized
comet tail length vs vehicle (CAL-27 cells [7]): no significant increase in comet tail length
comet tail length in irradiated cells vs vehicle irradiated (CAL-27 cells [7]): not significantly enhanced
effect on cell viability (LN-229 cells [8]): no appreciable effect on cell viability

cetuximab-MMAE-Cy5: cetuximab conjugated to MMAE via valine-citrulline linker and to Cy5
cell surface binding (Cy5 fluorescence) compared with CAL-27 (A549 cells [9]): decreased Cy5 cell surface fluorescence
cell surface binding (Cy5 fluorescence) compared with CAL-27 (HCT-116 cells [10]): decreased Cy5 cell surface fluorescence
IC50 higher than that of free MMAE (HCT-116 cells [11]): up to 100 fold
binding and internalization [12]: internalized
IC50 (SCC-35 cells): 0.6 nM
IC50 (SCC-61 cells): 1.2 nM
IC50 (SQ-9G cells [2]): 0.2 nM
clonogenic cell survival curve (CAL-27 cells [3]; 2 nM overnight, then 0-6 Gy): significantly decreased the surviving fraction
surviving fraction at 2 Gy (CAL-27 cells [3]): significantly decreased
tumor xenograft growth delay with addition of IR (CAL-27 tumor xenografts [4]; 0.5 nmoles day 0, 3 Gy on day 1 and 2): increased tumor xenograft growth delay
tumor growth, non-irradiated tumors (CAL-27 tumor xenografts [4]): further increased
tumor volume vs cetuximab and MMAE co-delivery (CAL-27 tumor xenografts [4]; non-irradiated mice): non-significant decrease in tumor volume
cell binding (Cy5) (LN-229 cells [13]): did not bind appreciably
tumor Cy5 signal (LN-229 tumor xenografts): did not
tumor Cy5 signal [14]: strong Cy5 signal
persistence / retention in tumor xenografts [14]: 72 h
persistence / retention in tumor xenografts ([14]; listed as cetuximab-MMAE-IR): at least 48 hrs
comet tail length in irradiated cells vs vehicle irradiated (LN-229 cells [5]): no further increased comet tail length
cell surface binding (Cy5, flow cytometry) (CAL-27 cells [6]): dose dependent manner
cell surface binding (Cy5, flow cytometry) (CAL-27 cells [6]; listed as cetuximab-MMAE): continued dose responsive cell surface binding
comet tail length in irradiated cells (SCC-25 cells): significantly increased comet tail length
comet tail length vs vehicle (CAL-27 cells [7]): no significant increase in comet tail length
comet tail length in irradiated cells vs vehicle irradiated (CAL-27 cells [7]): significantly increased comet tail length
comet tail length in irradiated cells (SQ-9G cells [15]): significantly increased comet tail length
effect on cell viability (LN-229 cells [8]): no appreciable effect on cell viability
increase in staining for pS10 histone H3 compared to cetuximab-Cy5 (CAL-27 tumor xenografts [16]): 75%
IC50 higher than that of free MMAE (A549 cells [17]): up to 100 fold

cetuximab: therapeutic EGFR antibody
cells in G2/M (CAL-27 cells [18]): 14%
